This assay concerns T cells derived form the thymus of young onset MG patient. Description: Anergy induction in AChR-specific, DR4Dw4-restricted T cells (tritiated thymidine proliferation). The format is cell-based, human. Conditions: IL2 at 0.5%. The method, then:
The T cells in this experiment were derived form the thymus of young onset MG patient. They recognize the residues 138-167 AChR αsubunit and are restricted by DR4Dw4. In the experiments, 2×10^4 T cells were preincubated for varying times with either complex (DR4: p138-167), DR4 alone, or peptide alone. Antigen presenting cells (APC's) pulsed with different antigens were then added and proliferation of the T cells was measured using tritiated thymidine as described above. The stimulating antigens included p138-167 and a recombinantly produced AChR αsubunit polypeptide termed r37-181, which was prepared as described in Beeson et al., EMBO J 9:2101-2106 (1990) and Beeson et al., Biochem. Soc. Trans. 17:219-220 (1989), both of which are incorporated herein by reference.
To test the specificity of the interaction of the complexes with the T cells, T-cells (1×10^4) were incubated with various forms of the complex. These were—the relevant complex DR4:p138-167, DR4 alone, soluble DR4 and “sham” p138-167 in equimolar (proportionally) amounts but not bound together and DR4:MBPp1-14 complex. Sham peptide was used as previous experiments had shown that soluble p138-167 alone had similar effects to the complex. […]

For the substance “IL2: IL2 added at 0.5% at the time of preincubation”, the “effect of addition at the time of preincubation with DR4:p138-167” value is reported as “did not diminish the inhibitory effects of the complex”.

The values are drawn from patent US6451314B1, “MHC conjugates useful in ameliorating autoimmunity” (Anergen, Inc., priority 1988, dated 2002).
